According to US20050004215A1, “Amorphous simvastatin calcium and methods for the preparation thereof” (priority 2003, published 2005):

Settings: room temperature, closed container under nitrogen

stability during storage: stable
Substance: amorphous calcium salt of dihydroxy open acid simvastatin [amorphous simvastatin calcium]
